Source: patent publication US9975907B2, “Pyrimidinones as PI3K inhibitors” (Incyte Corporation, priority 2009, dated 2018)

Amino acid sequences for entries named in this document (tags omitted). A change or cut given only in a name is not applied to a line headed by its entry.
UniProt O00329, whole entry, species assumed: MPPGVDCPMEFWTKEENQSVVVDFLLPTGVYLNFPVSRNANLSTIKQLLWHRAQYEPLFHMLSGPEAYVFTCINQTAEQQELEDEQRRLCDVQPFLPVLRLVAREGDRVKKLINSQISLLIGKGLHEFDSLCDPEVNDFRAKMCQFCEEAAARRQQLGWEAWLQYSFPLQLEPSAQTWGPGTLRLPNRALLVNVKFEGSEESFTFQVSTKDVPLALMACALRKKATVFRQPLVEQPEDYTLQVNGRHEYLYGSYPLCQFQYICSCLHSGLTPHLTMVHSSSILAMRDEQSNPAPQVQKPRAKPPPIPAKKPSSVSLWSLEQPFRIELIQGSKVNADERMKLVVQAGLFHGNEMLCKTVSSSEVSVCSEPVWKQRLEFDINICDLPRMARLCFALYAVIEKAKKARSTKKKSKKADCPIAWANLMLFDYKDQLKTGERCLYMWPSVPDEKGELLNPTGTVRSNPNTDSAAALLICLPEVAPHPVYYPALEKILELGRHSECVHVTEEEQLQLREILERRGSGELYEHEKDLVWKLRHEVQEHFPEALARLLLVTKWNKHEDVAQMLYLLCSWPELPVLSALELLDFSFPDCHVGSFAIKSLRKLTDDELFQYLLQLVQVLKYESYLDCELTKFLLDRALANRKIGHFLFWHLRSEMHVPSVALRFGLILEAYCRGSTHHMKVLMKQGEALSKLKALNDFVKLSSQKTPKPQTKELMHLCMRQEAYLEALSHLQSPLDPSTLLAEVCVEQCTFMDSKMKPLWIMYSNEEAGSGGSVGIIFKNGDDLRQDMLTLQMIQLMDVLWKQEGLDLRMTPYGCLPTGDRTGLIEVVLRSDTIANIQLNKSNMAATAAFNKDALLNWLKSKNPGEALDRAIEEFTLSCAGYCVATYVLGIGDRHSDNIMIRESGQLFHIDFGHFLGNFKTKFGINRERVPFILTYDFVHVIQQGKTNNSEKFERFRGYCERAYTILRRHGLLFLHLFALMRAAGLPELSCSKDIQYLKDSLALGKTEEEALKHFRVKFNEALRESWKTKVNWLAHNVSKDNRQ
UniProt P42336, whole entry, species assumed: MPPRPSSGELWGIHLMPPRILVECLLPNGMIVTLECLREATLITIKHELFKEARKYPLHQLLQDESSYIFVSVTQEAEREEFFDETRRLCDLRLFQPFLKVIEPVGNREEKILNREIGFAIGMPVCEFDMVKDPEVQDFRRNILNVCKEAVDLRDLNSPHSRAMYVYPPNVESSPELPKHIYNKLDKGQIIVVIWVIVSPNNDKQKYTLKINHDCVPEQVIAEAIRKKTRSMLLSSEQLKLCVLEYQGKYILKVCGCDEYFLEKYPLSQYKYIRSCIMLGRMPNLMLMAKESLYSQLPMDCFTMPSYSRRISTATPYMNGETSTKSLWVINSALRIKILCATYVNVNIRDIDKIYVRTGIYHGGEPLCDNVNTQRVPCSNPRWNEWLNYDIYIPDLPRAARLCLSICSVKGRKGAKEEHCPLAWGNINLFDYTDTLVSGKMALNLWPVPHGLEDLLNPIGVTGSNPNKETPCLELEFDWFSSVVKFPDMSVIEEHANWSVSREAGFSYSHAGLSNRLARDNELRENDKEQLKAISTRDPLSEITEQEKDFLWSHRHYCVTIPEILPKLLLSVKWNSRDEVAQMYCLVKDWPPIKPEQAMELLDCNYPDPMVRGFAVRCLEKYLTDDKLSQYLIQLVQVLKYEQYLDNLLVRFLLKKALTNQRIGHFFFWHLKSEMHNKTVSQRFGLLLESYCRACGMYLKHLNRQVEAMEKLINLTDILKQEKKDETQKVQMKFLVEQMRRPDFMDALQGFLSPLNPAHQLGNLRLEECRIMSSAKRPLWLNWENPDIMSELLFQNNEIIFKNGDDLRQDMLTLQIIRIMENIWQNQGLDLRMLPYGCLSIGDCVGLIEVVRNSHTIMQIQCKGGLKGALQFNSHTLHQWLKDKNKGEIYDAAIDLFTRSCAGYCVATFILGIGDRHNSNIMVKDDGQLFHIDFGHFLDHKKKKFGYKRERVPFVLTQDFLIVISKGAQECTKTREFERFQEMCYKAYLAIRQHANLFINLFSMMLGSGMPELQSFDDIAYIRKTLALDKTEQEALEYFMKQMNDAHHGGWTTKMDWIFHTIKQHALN

What was measured:
Format in all cases: biochemical
PI3Kδ (p110δ/p85α) [1] = molecular target: T1, PI3Kδ (p110δ/p85α) (Homo sapiens (Human), UniProt O00329); assay: PI3Kδ Scintillation Proximity Assay (Assay A3); details: column b, Assay A3 (SPA), 20 μM ATP
Text: [γ-^33P]ATP (10 mCi/mL) was purchased from Perkin-Elmer (Waltham, Mass.). Lipid kinase substrate, D-myo-Phosphatidylinositol 4,5-bisphosphate (PtdIns(4,5)P2)D (+)-sn-1,2-di-O-octanoylglyceryl, 3-O-phospho linked (PIP2), CAS 204858-53-7, was purchased from Echelon Biosciences (Salt Lake City, Utah). PI3Kδ (p110δ/p85α) was purchased from Millipore (Bedford, Mass.). ATP, MgCl2, DTT, EDTA, MOPS and CHAPS were purchased from Sigma-Aldrich (St. Louis, Mo.). Wheat Germ Agglutinin (WGA) YSi SPA Scintillation Beads was purchased from GE healthcare life sciences (Piscataway, N.J.).
The kinase reaction was conducted in polystyrene 384-well matrix white plate from Thermo Fisher Scientific in a final volume of 25 μL. Inhibitors were first diluted serially in DMSO and added to the plate wells before the addition of other reaction components. The final concentration of DMSO in the assay was 0.5%. The PI3K assays were carried out at room temperature in 20 mM MOPS, pH 6.7, 10 mM MgCl2, 5 mM DTT and CHAPS 0.03%. Reactions were initiated by the addition of ATP, the final reaction mixture consisted of 20 μM PIP2, 20 μM ATP, 0.2 μCi [γ-^33P] ATP, 4 nM PI3Kδ. Reactions were incubated for 210 min and terminated by the addition of 40 μL SPA beads suspended in quench buffer: 150 mM potassium phosphate pH 8.0, 20% glycerol. 25 mM EDTA, 400 μM ATP. The final concentration of SPA beads was 1.0 mg/mL. After the plate sealing, plates were shaken overnight at room temperature and centrifuged at 1800 rpm for 10 minutes, the radioactivity of the product was determined by scintillation counting on Topcount (Perkin-Elmer). IC50 determination was performed by fitting the curve of percent control activity versus the log of the inhibitor concentration using the GraphPad Prism 3.0 software.

PI3Kα = PI3Kα (Homo sapiens (Human), UniProt P42336); assay: PI3K Enzyme Assay A2 ([γ-33P]ATP filter plate), PI3Kα; details: Assay A2, 1000 μM ATP
Experimental: (§1) Materials: Lipid kinase substrate, phosphoinositol-4,5-bisphosphate (PIP2), was purchased from Echelon Biosciences (Salt Lake City, Utah). PI3K isoforms α, β, δ and γ were purchased from Millipore (Bedford, Mass.). ATP, MgCh, DTT, EDTA, MOPS and CHAPS were purchased from Sigma-Aldrich (St. Louis, Mo.). The kinase reaction was conducted in clear-bottom 96-well plate from Thermo Fisher Scientific in a final volume of 24 μL. Inhibitors were first diluted serially in DMSO and added to the plate wells before the addition of other reaction components. The final concentration of DMSO in the assay was 0.5%. The PI3K assays were carried out at room temperature in 20 mM MOPS, pH 6.7, 10 mM MgCl2, 5 mM DTT and CHAPS 0.03%. The reaction mixture was prepared containing 50 μM PIP2, kinase and varying concentration of inhibitors. Reactions were initiated by the addition of ATP containing 2.2 μCi [γ-^33P]ATP to a final concentration of 1000 μM. […] Reactions were incubated for 180 min and terminated by the addition of 100 μL of 1 M potassium phosphate pH 8.0, 30 mM EDTA quench buffer. […] After the plate sealing, the radioactivity of the product was determined by scintillation counting on Topcount (Perkin-Elmer). […]

PI3Kδ = PI3Kδ (Homo sapiens (Human), UniProt O00329); assay: PI3K Enzyme Assay A2 ([γ-33P]ATP filter plate), PI3Kδ; details: column a, Examples 15, 30 and 44 used Assay A2, 1000 μM ATP
Experimental: as §1

PI3Kδ (p110δ/p85α) [2] = molecular target: T1, PI3Kδ (p110δ/p85α); assay: AlphaScreen Assay for PI3Kδ (Assay A1); details: column a, 20 μM ATP
Text: PI3-Kinase luminescent assay kit including lipid kinase substrate, D-myo-phosphatidylinositol 4,5-bisphosphate (PtdIns(4,5)P2)D (+)-sn-1,2-di-O-octanoylglyceryl, 3-O-phospho linked (PIP2), biotinylated I(1,3,4,5)P4, PI(3,4,5)P3 Detector Protein, was purchased from Echelon Biosciences (Salt Lake City, Utah). AlphaScreen™ GST Detection Kit including donor and acceptor beads was purchased from PerkinElmer Life Sciences (Waltham, Mass.). PI3Kδ (p110δ/p85α) was purchased from Millipore (Bedford, Mass.). ATP, MgCb, DTT, EDTA, HEPES and CHAPS were purchased from Sigma-Aldrich (St. Louis, Mo.).
AlphaScreen™ Assay for PI3Kδ
The kinase reaction was conducted in 384-well REMP plate from Thermo Fisher Scientific in a final volume of 40 μL. Inhibitors were first diluted serially in DMSO and added to the plate wells before the addition of other reaction components. The final concentration of DMSO in the assay was 2%. The PI3K assays were carried out at room temperature in 50 mM HEPES, pH 7.4, 5 mM MgCl2, 50 mM NaCl, 5 mM DTT and CHAPS 0.04%. Reactions were initiated by the addition of ATP, the final reaction mixture consisted of 20 μM PIP2, 20 μM ATP, 1.2 nM PI3Kδ were incubated for 20 min. […] The activity of the product was determined on Fusion-alpha microplate reader (Perkin-Elmer). […]

Row | SMILES | IC50 (PI3Kδ (p110δ/p85α) [1]) | IC50 (PI3Kα) | IC50 (PI3Kδ) | IC50 (PI3Kδ (p110δ/p85α) [2])
1 | Cc1csc2nc([C@H](C)Nc3ncnc4[nH]cnc34)c(-c3cccc(F)c3)c(=O)n12 [Example 15, (S)-7-(1-(9H-purin-6-ylamino)ethyl)-6-(3-fluorophenyl)-3-methyl-5H-thiazolo[3,2-a]pyrimidin-5-one] | < 50 nM | > 500 nM | < 50 nM | 
2 | Cc1csc2nc(C(C)Nc3ncnc4[nH]cnc34)c(-c3cccc(F)c3)c(=O)n12 (centres unmarked) [Example 30, 6-(3-fluorophenyl)-3-methyl-7-[1-(9H-purin-6-ylamino)ethyl]-5H-[1,3]thiazolo[3,2-a]pyrimidin-5-one] |  |  | < 50 nM | 
3 | Cc1csc2nc([C@H](C)Nc3ccnc4[nH]cnc34)c(-c3cccc(F)c3)c(=O)n12 [Example 46, 6-(3-Fluorophenyl)-7-[(1S)-1-(3H-imidazo[4,5-6]pyridin-7-ylamino)ethyl]-3-methyl-5H-[1,3]thiazolo[3,2-a]pyrimidin-5-one] | < 50 nM |  |  | 
4 | Cc1csc2nc(C(C)Nc3ncnc4[nH]cnc34)c(-c3cccc(F)c3)c(=O)n12 (centres unmarked) [Example 10, 6-(3-fluorophenyl)-3-methyl-7-[1-(9H-purin-6-ylamino)ethyl]-5H-[1,3]thiazolo[3,2-a]pyrimidin-5-one] | < 50 nM | > 500 nM |  | < 50 nM
